Measurements: ChEMBL document CHEMBL1133694, “Hydroxamic acid derivatives as potent peptide deformylase inhibitors and antibacterial agents” (J Med Chem, 2000)

Target: T1, Peptide deformylase (Escherichia coli, UniProt Q9JN24)
T1 sequence (Q9JN24 whole entry): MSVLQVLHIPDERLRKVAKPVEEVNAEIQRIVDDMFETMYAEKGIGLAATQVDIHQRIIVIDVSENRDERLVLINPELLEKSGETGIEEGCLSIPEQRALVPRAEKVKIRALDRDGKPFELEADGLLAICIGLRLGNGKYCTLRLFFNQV
Assay: Inhibitory activity against isolated Escherichia coli peptidyl deformylase (PDF) enzyme containing iron.

| Compound | IC50 [nM] |
| --- | --- |
| CC(CC(=O)NO)S(=O)(=O)c1ccccc1 (centres undefined) | 22000 |
| CCCCC(CC(=O)NO)S(=O)(=O)c1ccc(Br)cc1 (centres undefined) | 120 |
| CCCCC(CC(=O)NO)S(=O)(=O)C1CCCCC1 (centres undefined) | 230 |
| O=C(CC(c1ccc2c(c1)OCO2)S(=O)(=O)c1ccccc1)NO (centres undefined) | 1100 |
